Data: ChEMBL document CHEMBL4229563, “Identification of the First PPARα/γ Dual Agonist Able To Bind to Canonical and Alternative Sites of PPARγ and To Inhibit Its Cdk5-Mediated Phosphorylation” (J Med Chem, 2018)

The compounds below were run against T1, Peroxisome proliferator-activated receptor alpha (Homo sapiens) (UniProt Q07869) (assay: Transactivation of GAL4-tagged human PPARalpha LBD expressed in human HepG2 cells after 20 hrs by luciferase reporter gene assay relative to Wy-14,643).
T1 sequence (whole entry): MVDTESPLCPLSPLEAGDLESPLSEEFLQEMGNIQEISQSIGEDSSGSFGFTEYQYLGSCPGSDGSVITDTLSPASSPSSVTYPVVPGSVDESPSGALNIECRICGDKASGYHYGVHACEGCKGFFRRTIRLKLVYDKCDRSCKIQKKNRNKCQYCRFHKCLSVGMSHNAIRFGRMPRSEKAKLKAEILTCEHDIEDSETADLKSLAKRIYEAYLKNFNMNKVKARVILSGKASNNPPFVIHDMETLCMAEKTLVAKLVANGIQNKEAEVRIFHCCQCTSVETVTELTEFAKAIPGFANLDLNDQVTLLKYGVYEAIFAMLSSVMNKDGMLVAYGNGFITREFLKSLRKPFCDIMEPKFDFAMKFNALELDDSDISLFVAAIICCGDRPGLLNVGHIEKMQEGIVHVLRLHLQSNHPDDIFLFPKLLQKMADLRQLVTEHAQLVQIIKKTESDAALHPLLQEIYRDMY
Type: cell-based

Point of comparison: `O=C(O)[C@H](Cc1ccccc1)Oc1ccc(-c2ccc(C[C@@H](Oc3ccc(-c4ccccc4)cc3)C(=O)O)cc2)cc1`, Emax 4%. Against it:
- O=C(O)[C@H](Cc1ccc(-c2ccc(O[C@@H](Cc3ccccc3)C(=O)O)cc2)cc1)Oc1ccc(-c2ccccc2)cc1 — higher, 47%
- O=C(O)[C@H](Cc1ccc(-c2ccc(O[C@H](Cc3ccccc3)C(=O)O)cc2)cc1)Oc1ccc(-c2ccccc2)cc1 — higher, 13%

For `O=C(O)[C@@H](Cc1ccc(-c2ccc(O[C@H](Cc3ccccc3)C(=O)O)cc2)cc1)Oc1ccc(-c2ccccc2)cc1`, the Emax was “inactive”.

Active and inactive are the calls of the source. The calls are words filed in the database; no cut-off is given here.
